Assay results from EP4831160A1, “TRISUBSTITUTED QUINAZOLINE DERIVATIVE, ACID ADDITION SALT THEREOF, AND PHARMACEUTICAL COMPOSITION AND USE THEREOF” (dated 2026).
In brackets after ≈: the same amount, converted by molar mass. One block for each molecule: values may come before it.

Chains of the proteins cited; added tags and fusions are not shown. A line that says so, or that is headed by a name, gives the form on record, which may keep a tag or linker. Residues count along the entry.
UniProt P00533, with tags, fused parts or gaps INS770NPG limits assumed: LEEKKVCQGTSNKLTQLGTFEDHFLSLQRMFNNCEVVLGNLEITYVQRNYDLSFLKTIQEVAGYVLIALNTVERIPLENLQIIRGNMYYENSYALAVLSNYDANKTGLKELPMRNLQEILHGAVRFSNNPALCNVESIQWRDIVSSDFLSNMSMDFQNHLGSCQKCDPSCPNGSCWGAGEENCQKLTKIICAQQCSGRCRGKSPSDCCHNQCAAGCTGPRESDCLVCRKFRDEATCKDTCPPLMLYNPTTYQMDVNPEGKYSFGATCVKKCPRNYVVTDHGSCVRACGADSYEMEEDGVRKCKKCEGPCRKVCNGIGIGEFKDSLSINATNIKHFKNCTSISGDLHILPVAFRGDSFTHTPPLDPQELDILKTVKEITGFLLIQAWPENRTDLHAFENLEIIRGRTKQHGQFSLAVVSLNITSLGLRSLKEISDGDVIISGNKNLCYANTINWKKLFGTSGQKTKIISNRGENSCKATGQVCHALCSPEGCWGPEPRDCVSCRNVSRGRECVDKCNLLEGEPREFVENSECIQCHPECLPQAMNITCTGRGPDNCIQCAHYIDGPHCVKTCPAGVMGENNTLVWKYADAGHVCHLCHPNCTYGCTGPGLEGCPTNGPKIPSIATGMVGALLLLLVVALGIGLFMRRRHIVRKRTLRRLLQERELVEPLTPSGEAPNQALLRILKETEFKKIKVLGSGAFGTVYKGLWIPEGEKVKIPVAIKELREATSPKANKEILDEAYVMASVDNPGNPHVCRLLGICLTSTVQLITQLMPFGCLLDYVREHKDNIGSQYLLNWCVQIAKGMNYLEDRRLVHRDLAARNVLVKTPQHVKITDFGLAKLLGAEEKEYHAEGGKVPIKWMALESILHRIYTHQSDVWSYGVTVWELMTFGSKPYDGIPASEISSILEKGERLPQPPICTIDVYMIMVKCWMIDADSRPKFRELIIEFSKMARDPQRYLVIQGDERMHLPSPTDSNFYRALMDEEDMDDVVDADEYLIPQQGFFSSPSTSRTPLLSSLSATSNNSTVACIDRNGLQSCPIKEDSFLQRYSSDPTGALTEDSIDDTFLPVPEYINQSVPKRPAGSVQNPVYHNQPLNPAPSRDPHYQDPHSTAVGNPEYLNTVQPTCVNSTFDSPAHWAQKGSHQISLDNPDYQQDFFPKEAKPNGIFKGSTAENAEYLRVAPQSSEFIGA
UniProt P00533, 25-1210 T790M limits assumed: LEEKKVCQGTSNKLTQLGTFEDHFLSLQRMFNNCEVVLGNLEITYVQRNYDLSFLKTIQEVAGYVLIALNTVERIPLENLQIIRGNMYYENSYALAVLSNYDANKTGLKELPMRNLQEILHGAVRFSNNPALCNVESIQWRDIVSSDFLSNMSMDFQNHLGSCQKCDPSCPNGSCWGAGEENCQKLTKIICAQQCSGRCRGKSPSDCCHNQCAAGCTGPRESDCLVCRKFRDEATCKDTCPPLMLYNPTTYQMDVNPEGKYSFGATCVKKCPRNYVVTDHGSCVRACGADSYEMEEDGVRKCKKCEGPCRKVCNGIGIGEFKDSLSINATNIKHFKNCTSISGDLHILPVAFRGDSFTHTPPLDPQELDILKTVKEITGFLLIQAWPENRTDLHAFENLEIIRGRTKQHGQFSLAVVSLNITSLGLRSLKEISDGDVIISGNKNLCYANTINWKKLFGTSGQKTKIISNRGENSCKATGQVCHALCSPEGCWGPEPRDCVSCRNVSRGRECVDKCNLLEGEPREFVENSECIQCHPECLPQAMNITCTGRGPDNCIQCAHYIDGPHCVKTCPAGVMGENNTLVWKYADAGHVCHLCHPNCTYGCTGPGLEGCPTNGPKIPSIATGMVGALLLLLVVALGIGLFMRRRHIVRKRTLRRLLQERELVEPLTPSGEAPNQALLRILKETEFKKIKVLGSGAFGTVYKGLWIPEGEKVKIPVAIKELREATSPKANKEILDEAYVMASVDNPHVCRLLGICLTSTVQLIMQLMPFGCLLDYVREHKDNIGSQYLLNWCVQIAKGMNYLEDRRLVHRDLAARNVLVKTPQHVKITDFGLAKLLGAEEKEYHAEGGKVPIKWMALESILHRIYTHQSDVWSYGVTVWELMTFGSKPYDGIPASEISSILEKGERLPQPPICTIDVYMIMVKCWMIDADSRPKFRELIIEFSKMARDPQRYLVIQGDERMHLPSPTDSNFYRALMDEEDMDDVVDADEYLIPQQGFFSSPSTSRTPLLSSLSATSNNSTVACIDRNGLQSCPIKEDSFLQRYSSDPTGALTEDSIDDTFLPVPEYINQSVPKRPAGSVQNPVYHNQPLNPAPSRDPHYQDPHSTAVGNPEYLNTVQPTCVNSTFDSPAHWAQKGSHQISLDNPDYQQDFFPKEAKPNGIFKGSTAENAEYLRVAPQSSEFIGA
UniProt P04626, 23-1255 limits assumed: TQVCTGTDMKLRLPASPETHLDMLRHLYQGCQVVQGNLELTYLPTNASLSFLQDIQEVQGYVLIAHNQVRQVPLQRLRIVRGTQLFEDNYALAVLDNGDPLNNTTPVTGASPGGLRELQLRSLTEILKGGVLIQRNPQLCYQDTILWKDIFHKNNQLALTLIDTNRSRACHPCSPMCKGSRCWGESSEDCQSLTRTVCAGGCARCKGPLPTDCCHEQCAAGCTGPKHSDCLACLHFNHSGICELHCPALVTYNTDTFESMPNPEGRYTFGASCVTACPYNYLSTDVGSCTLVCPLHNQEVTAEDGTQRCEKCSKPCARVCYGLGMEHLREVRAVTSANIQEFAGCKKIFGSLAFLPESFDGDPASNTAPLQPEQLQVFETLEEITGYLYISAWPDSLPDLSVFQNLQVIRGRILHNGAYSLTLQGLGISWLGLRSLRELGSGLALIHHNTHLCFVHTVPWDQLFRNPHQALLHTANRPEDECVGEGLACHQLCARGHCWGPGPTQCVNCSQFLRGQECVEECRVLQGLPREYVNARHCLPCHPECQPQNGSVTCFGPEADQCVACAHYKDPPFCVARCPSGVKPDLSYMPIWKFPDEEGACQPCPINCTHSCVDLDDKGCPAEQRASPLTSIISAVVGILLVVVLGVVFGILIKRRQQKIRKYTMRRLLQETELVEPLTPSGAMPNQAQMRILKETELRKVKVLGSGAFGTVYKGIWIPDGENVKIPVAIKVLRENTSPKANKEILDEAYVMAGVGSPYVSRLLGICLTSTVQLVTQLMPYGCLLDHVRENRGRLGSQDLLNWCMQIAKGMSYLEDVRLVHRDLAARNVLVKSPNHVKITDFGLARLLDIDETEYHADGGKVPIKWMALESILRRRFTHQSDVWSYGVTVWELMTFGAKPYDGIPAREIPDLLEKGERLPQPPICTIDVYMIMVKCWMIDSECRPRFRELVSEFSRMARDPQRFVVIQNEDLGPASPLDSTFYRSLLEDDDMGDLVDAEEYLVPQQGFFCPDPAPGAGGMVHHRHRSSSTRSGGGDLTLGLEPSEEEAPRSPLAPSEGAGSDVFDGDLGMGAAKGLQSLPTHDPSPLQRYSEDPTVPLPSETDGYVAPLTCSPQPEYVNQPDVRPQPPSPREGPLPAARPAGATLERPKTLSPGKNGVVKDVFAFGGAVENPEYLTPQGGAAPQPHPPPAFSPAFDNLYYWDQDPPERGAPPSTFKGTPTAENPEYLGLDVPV
UniProt P04626, with tags, fused parts or gaps INS777CG limits assumed: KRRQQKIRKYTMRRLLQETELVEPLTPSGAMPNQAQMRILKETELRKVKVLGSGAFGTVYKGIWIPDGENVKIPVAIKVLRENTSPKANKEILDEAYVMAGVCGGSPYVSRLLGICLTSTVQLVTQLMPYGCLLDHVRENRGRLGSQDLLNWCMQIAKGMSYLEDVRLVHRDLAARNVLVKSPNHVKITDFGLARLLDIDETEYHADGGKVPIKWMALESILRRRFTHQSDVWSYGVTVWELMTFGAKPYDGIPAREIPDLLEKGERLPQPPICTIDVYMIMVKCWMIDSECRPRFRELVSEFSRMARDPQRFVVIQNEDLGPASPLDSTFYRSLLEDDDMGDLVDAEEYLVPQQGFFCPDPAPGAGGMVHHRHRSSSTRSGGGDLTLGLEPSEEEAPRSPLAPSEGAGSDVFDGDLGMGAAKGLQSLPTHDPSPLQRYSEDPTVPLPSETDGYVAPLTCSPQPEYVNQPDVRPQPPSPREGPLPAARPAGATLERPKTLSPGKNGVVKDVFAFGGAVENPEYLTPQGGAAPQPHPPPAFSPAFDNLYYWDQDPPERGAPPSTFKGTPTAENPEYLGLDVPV
UniProt P51451, whole entry: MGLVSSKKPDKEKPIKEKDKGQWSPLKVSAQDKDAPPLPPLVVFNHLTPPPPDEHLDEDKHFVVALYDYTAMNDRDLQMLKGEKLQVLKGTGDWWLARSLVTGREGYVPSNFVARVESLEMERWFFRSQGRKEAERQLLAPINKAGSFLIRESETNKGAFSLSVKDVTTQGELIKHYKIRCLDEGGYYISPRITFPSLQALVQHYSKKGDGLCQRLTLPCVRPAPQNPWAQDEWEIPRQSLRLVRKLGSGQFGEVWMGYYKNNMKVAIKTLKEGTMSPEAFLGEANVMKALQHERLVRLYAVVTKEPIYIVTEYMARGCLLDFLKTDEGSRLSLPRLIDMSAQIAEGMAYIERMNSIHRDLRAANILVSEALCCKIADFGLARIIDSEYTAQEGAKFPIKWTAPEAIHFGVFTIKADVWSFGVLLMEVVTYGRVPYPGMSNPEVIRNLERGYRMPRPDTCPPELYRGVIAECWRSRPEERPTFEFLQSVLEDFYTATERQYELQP

Legend:
EGFR (D770_N771insNPG) = EGFR (D770_N771insNPG) (Homo sapiens, UniProt P00533, INS770NPG); experiment: Homogeneous time-resolved fluorescence (HTRF) kinase assay
HER2 (V777-G778insCG) = HER2 (V777-G778insCG) (Homo sapiens, UniProt P04626, INS777CG); experiment: as above; settings: read-out: enzymatic activity (IC90)
EGFR (T790M) = EGFR (T790M) (Homo sapiens, UniProt P00533, T790M); experiment: as above; settings: read-out: enzymatic activity (IC90)
HER2 = HER2 (Homo sapiens, UniProt P04626); experiment: as above
[1] = biological target: B-cell lymphocyte kinase (BLK) (Homo sapiens, UniProt P51451); experiment: as above; settings: read-out: enzymatic activity (IC90)
HCC1419 cell = experiment: Cell proliferation inhibition experiment (similar cell experimental conditions, CellTiter-Glo)
cells (e.g. SW620 cells) = experiment: Cell biology experiment: CellTiter-Glo luminescence, 3 days incubation, cell line panel of the results table
[2] = Pharmacokinetics in rats, intravenous and oral administration
[3] = Blood-brain barrier assay / tissue distribution after oral administration, LC-MS/MS; settings: 3 mg/kg oral (dosed as maleate hydrate crystal form A)
[4] = Systematic characterization of different salt crystal forms (comparison of properties); settings: sealed centrifuge tube, kept at RT
[5] = tested on: HER2-positive colorectal cancer; experiment: Human clinical trial, efficacy in subjects with HER2-positive colorectal cancer; settings: for BOR: Best Overall Response
[6] = tested on: HER2-positive other tumor types; experiment: Human clinical trial, efficacy in subjects with HER2-positive other tumor types; settings: for BOR: Best Overall Response
[7] = Solid stability study by HPLC (purity by area normalization); settings: after 21 days at room temperature
[8] = tested on: HER2-positive breast cancer; experiment: Human clinical trial, efficacy in subjects with HER2-positive breast cancer; settings: for BOR: Best Overall Response
brain metastases = experiment: Clinical: intracranial lesions of patients with brain metastases after treatment
[9] = tested on: BT-474 human breast cancer cell line; experiment: In vivo efficacy study, subcutaneous BT-474 xenograft, p.o. QD×21; settings: for mice that achieved complete tumor regression: at the end of treatment; for tumor growth inhibition (TGI): oral, once daily for 21 consecutive days, BT-474 xenograft
SK-BR-3 cell = experiment: Cell proliferation inhibition experiment; settings: SK-BR-3 cell proliferation inhibition
[10] = read-out: enzymatic activity (IC90)
[11] = Subject No. 01003, submandibular cancer, 150 mg QD
[12] = Subject No. 01021, salivary gland cancer, 200 mg QD

IC50 (EGFR (D770_N771insNPG); enzymatic activity): 5.99 nM
IC90 (EGFR (D770_N771insNPG); [10]): 172 nM
IC90 (HER2 (V777-G778insCG)): 152 nM
IC90 (EGFR (T790M)): 45.4 nM
IC50 (HER2; enzymatic activity): 1.3 nM
IC90 (HER2; [10]): 8.03 nM
IC90 [1]: 145 nM
EC50 (HCC1419 cell): 0.016 µg/mL (≈ 0.0319 µM)
IC50 (cells (e.g. SW620 cells); BT-474 (HER2+) cell line): 148 nM
IC50 (cells (e.g. SW620 cells); HCC1954 (HER2+) cell line): 132 nM
IC50 (cells (e.g. SW620 cells); SK-BR-3 (HER2+) cell line): 11.1 nM
Rat IV 1 mpk AUC0-t ([2]; rat, IV, 1 mpk): 561 (h*ng/mL)
F% ([2]; rat, bioavailability, oral 10 mpk vs IV 1 mpk): 79.50%
Rat Oral 10 mpk AUC0-t ([2]; rat, oral, 10 mpk): 4460 (h*ng/mL)
Cmax ([2]; rat, route not printed in the row, stands below the Rat Oral 10 mpk row): 304 ng/mL
bioavailability ([2]; rats, oral vs intravenous): 79.5%
exposure ratio in the brain and plasma ([3]; female rats): 79.7%
exposure ratio in the brain and plasma ([3]; male rats): 43.6%
Structure (SMILES): CCOc1cc2ncnc(Nc3ccc(Oc4ccc(F)cc4)cc3)c2cc1NC(=O)/C=C/CN(C)C

solid stability: impurity RRT= 0.29 ([4]; at day 0): 0.07%
solid stability: impurity RRT= 0.78 ([4]; at day 0): 0.02%
solid stability: impurity RRT= 0.89 ([4]; at day 0): 0.06%
solid stability: purity ([4]; at day 0): 99.61%
solid stability: impurity RRT= 0.29 ([4]; at day 24): 0.08%
solid stability: impurity RRT= 0.78 ([4]; at day 24): 0.02%
solid stability: impurity RRT= 0.89 ([4]; at day 24): 0.07%
solid stability: purity ([4]; at day 24): 99.59%
solid stability [7]: better stability
Structure (SMILES): CCOc1cc2ncnc(Nc3ccc(Oc4ccc(F)cc4)cc3)c2cc1NC(=O)/C=C/CN(C)C.O.O=C(O)/C=C\C(=O)O
Percentage Reduction in target Lesions ([5]; Subject No. 01007, 250 mg QD): -26.3%
BOR ([5]; Subject No. 01007, 250 mg QD): SD
Percentage Reduction in target Lesions ([5]; Subject No. 01018, 150 mg QD): -34.1%
BOR ([5]; Subject No. 01018, 150 mg QD): PR
Percentage Reduction in target Lesions ([5]; Subject No. 03012, 200 mg QD): -21.8%
BOR ([5]; Subject No. 03012, 200 mg QD): SD
Percentage Reduction in target Lesions [6, 11]: -59.3%
BOR [6, 11]: PR
Percentage Reduction in target Lesions [6, 12]: -34.5%
BOR [6, 12]: PR
Percentage Reduction in target Lesions ([8]; Subject No. 01013, 200 mg QD): -46.5%
BOR ([8]; Subject No. 01013, 200 mg QD): PR
Percentage Reduction in target Lesions ([8]; Subject No. 01014, 200 mg QD): -47.6%
BOR ([8]; Subject No. 01014, 200 mg QD): PR
Percentage Reduction in target Lesions ([8]; Subject No. 01023, 200 mg QD): -53.3%
BOR ([8]; Subject No. 01023, 200 mg QD): PR
Percentage Reduction in target Lesions ([8]; Subject No. 02004, 200 mg QD): -32.7%
BOR ([8]; Subject No. 02004, 200 mg QD): PR
Percentage Reduction in target Lesions ([8]; Subject No. 02008, 200 mg QD): -69.8%
BOR ([8]; Subject No. 02008, 200 mg QD): PR
Percentage Reduction in target Lesions ([8]; Subject No. 02010, 200 mg QD): -100%
BOR ([8]; Subject No. 02010, 200 mg QD): CR
Percentage Reduction in target Lesions ([8]; Subject No. 02013, 200 mg QD): -44.2%
BOR ([8]; Subject No. 02013, 200 mg QD): PR
Percentage Reduction in target Lesions ([8]; Subject No. 02014, 150 mg QD): -65.2%
BOR ([8]; Subject No. 02014, 150 mg QD): PR
Percentage Reduction in target Lesions ([8]; Subject No. 03014, 150 mg QD): -45.8%
BOR ([8]; Subject No. 03014, 150 mg QD): PR
Intracranial Lesion Reduction% (brain metastases; Test Subject No. 01021, salivary gland cancer, 200 mg QD): -60%
Intracranial Lesion Reduction% (brain metastases; Test Subject No. 03005, breast cancer, 150 mg QD): -41.2%
mice that achieved complete tumor regression ([9]; 10 mg/kg): all
tumor growth inhibition (TGI) ([9]; 10 mg/kg): 100%
mice that achieved complete tumor regression ([9]; 20 mg/kg): all
tumor growth inhibition (TGI) ([9]; 20 mg/kg): 100%
mice that achieved complete tumor regression ([9]; 40 mg/kg): all
tumor growth inhibition (TGI) ([9]; 40 mg/kg): 100%

IC50 (SK-BR-3 cell): 221 nM
Structure (SMILES): COc1cc2ncnc(Nc3ccc(Oc4ccc(Cl)cc4)cc3)c2cc1NC(=O)/C=C/CN(C)C
